Laboratory results taken from patent publication US6270979A (priority 1998, dated 2001).
“Also recorded” adds a separate entry of the source.

Tests used:
Male ICR mice = conditions: mouse, in vivo
opioid μ receptor = type: cell-based, human

CNCCNS(=O)(=O)c1cccc2cnccc12 [H8]
effect on naloxone induced withdrawal jumping (Male ICR mice): without effect on naloxone induced jumping | reversal of morphine dependence (Male ICR mice): but not H8 | effect on naloxone cAMP overshoot / formation of μ* when added with morphine pretreatment (opioid μ receptor): had no such effect; also recorded: fails to block μ* function | effect on spontaneous cAMP overshoot induced by morphine pretreatment (opioid μ receptor): had some effects on the spontaneous cAMP overshoot
